Data as given in PubChem BioAssay AID493036 (Sanford-Burnham Center for Chemical Genomics, 2011).
The list shows a part of the results, in another mix than the full data. Some structures show a salt or complex split into parts, the way the source records it. Activity calls are given as the source filed them.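 How the source made its calls: active means activation at or above 40% of the spot to cytoplasm intensity ratio, with at least 20 cells analyzed; inconclusive means wells under 20 cells, flagged as cytotoxic or low count; inactive means the rest.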

Sequences of proteins named here, by UniProt entry; tags and fusion partners are left off.
UniProt P30989, whole entry: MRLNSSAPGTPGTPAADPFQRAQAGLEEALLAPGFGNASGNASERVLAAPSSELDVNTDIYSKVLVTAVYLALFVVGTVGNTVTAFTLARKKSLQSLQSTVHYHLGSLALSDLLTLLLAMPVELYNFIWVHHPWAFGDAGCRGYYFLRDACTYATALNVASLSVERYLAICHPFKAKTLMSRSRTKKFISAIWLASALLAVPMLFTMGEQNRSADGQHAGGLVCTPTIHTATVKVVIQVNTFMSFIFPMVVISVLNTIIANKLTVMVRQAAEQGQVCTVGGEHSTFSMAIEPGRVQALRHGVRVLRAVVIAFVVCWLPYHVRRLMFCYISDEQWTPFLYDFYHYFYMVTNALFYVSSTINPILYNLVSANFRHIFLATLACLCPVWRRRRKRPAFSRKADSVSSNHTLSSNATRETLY

What follows are molecules tested against Neurotensin receptor type 1 (Homo sapiens) (UniProt P30989) (assay: agonists of NTR1, primary screen, imaging, U2OS cells, beta-arrestin-GFP, high content (AID 493036;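 further: 0% = DMSO without peptide and 100% = 100 nM NTR1 peptide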) (AID 493036)). Settings: NTR1-U2OS beta-arrestin-GFP spot imaging, agonist mode; at 20 µM; active compounds read high.

| SMILES | activation |
| --- | --- |
| CCc1nc2c(n1)c1c(non1O)c1c2no[n+]1[O-] | inactive: 1.7% |
| O=[N+]([O-])c1cc([N+](=O)[O-])c(CCNc2ccccc2)c([N+](=O)[O-])c1 | inactive: 15.7% |
| CCc1ccc(OP(C)(=O)Nc2cccnc2)cc1 (centres undefined) | inactive: 0.4% |
| CP(=O)(Oc1ccccc1)N1CCOC1=O (centres undefined) | inactive: -0.7% |
| Cc1ccc(NP(=O)(Oc2ccccc2)Oc2ccccc2)nc1 | inactive: 0.4% |
| O=C(OCCCN1CCCC1)C(O)(c1ccccc1)C1CCCCC1 (centres undefined) | inactive: 0.6% |
| COc1ccccc1OP(C)(=O)Nc1c(C)n(C)n(-c2ccccc2)c1=O (centres undefined) | inactive: 4.9% |
| O=[N+]([O-])c1cccc2n[nH]nc12 | inactive: 1.8% |
| CC(=O)N1C2C3N(C(C)=O)C1C1N(C(C)=O)C(C(N1C(C)=O)N3C(C)=O)N2C(C)=O | inactive: 0.4% |
| COc1ccc(OP(C)(=O)Nc2ccc(Br)cc2)cc1 (centres undefined) | inactive: -0.8% |
| COc1ccc(C2=NCC(CBr)S2)cc1 (centres undefined) | inactive: 1.3% |
| CCN(CC)CC(O)COC(=O)C(O)(c1ccccc1)C1CCCCC1 (centres undefined) | inactive: -1.4% |
| CC1CCN(C(=O)Oc2c(Cl)cc(Cl)c3cccnc23)CC1 | inactive: 9.8% |
| CN(C)C(=O)OCCc1n(C)cc[n+]1C | inactive: 3.5% |
| CN(C)C(=O)c1c([N+](=O)[O-])cc([N+](=O)[O-])cc1[N+](=O)[O-] | inactive: -0.6% |
| CC(C)=N/N=C(\N)N[N+](=O)[O-] | inactive: 0.5% |
| CP(=O)(Nc1ccc(Cl)cc1)Oc1ccc(F)cc1 (centres undefined) | inactive: -1.6% |
| CCN(/C(=N/P(=O)(N1CCOCC1)N1CCOCC1)N1CCOCC1)c1ccc(OC)cc1 | inactive: -0.1% |
| C[N+]1=C2C=CC=CC=C2SC12C([N+](=O)[O-])=CC([N+](=O)[O-])=C[C-]2[N+](=O)[O-] (centres undefined) | inactive: 4.5% |
| CC(C)(C)c1ccc(OP(C)(=O)O)cc1 | inactive: 1.1% |
| Nc1ccc([As](=O)(O)c2ccc(N)cc2)cc1 | inactive: -1% |
| COc1ccccc1OP(C)(=O)Nc1ccccc1Br (centres undefined) | inactive: 3.7% |
| CP(=O)(OC12CC3CC(CC(C3)C1)C2)OC12CC3CC(CC(C3)C1)C2 | inactive: 7.4% |
| O=C(Nc1cc([As](=O)(O)O)ccc1O)c1ccccc1 | inactive: 0.6% |
| CCOC(=O)c1ccc(NP(C)(=O)Oc2ccc(Cl)cc2)cc1 (centres undefined) | inactive: -1.1% |

| SMILES | activation |
| --- | --- |
| Nc1ccc2c(ccc3cccnc32)n1.O=[N+]([O-])c1cc([N+](=O)[O-])c(O)c([N+](=O)[O-])c1 | inactive: 1.1% |
| O=[N+]([O-])c1cccc(NC2=NCC(CBr)S2)c1 (centres undefined) | inactive: 0.1% |
| O=[N+]([O-])c1ncn(CCn2ncnc2[N+](=O)[O-])n1 | inactive: 1.5% |
| CC(C)(C)C(=O)NC(Sc1ccncn1)C(Cl)(Cl)Cl (centres undefined) | inactive: 1.2% |
| COc1ccc(OP(C)(=O)Nc2ccccc2Br)cc1 (centres undefined) | inactive: -0.2% |
| Cc1ccc(NP(=O)(Oc2ccccc2F)Oc2ccccc2F)nc1 | inactive: -0.6% |
| CN(C(=O)Cc1ccc(Cl)c(Cl)c1)[C@H]1CCCC[C@@H]1N1CCCC1 | inactive: -0.3% |
| COc1ccccc1OP(C)(=O)Nc1ccc(C)c(C)c1 (centres undefined) | inactive: 1.2% |
| CCOP(=O)(Nc1ccccc1)OCC | inactive: 0.1% |
| Cc1cc(SC(NC(=O)c2ccc(F)cc2)C(Cl)(Cl)Cl)ncn1 (centres undefined) | inactive: 1.3% |
| Cc1cc(C)cc(OP(C)(=O)Nc2cccc(C(F)(F)F)c2)c1 (centres undefined) | inactive: 1.3% |
| O=P(Nc1nc2ccc(Cl)cc2s1)(c1ccccc1)c1ccccc1 | inactive: -0.6% |
| O=C(O)c1ccccc1[As](=O)(O)O | inactive: 0.2% |
| CC(=O)Nc1ccc([As](=O)(O)O)cc1 | inactive: -0.8% |
| CP(=O)(OCCOc1ccccc1)OCCOc1ccccc1 | inactive: 0% |
| CP(=O)(Nc1ccc(Cl)cc1Cl)Oc1ccccc1 (centres undefined) | inactive: -1.2% |
| CCN(N=Nc1nonc1N)c1nonc1N | inactive: 0.3% |
| O=[N+]([O-])c1cc([N+](=O)[O-])c(CCN2CCOCC2)c([N+](=O)[O-])c1 | inactive: 3.9% |
| Cc1nc2ccc3ccccc3c2o1.O=[N+]([O-])c1cc([N+](=O)[O-])c(O)c([N+](=O)[O-])c1 | inactive: 1.8% |
| Clc1ccc(Cl)c(NC2=NCC(CBr)S2)c1 (centres undefined) | inactive: -1.2% |
| CN(C)CCOC(=O)C(O)(c1ccccc1)C1CCCC1 (centres undefined) | inactive: 0.1% |
| CN1CCCC(OC(=O)C(c2ccccc2)c2ccccc2)C1 (centres undefined) | inactive: -1% |
| Cc1ccc(OP(=O)(Nc2nccs2)Oc2ccc(C)cc2)cc1 | inactive: 1% |
| COc1ccc(OP(C)(=O)Nc2ccccn2)cc1 (centres undefined) | inactive: 3.6% |
| COc1ccccc1OP(=O)(Nc1ccc(C)cn1)Oc1ccccc1OC | inactive: 0% |

| SMILES | activation |
| --- | --- |
| Cc1ccc(N/C(=N/P(=O)(N2CCOCC2)N2CCOCC2)N2CCOCC2)cc1 | inactive: -0.2% |
| COc1ccccc1OP(C)(=O)Nc1ccc(Br)cc1 (centres undefined) | inactive: -1.2% |
| CN(C(=O)Cc1ccc(Cl)c(Cl)c1)[C@H]1CCCC[C@H]1N1CCCC1 | inactive: -1.2% |
| NC(=O)c1cc([N+](=O)[O-])cc([N+](=O)[O-])c1N | inactive: -0.7% |
| CCc1ccc(OP(C)(=O)O)cc1 | inactive: -2.1% |
| COc1ccccc1OP(C)(=O)Nc1ccc(C)cc1C (centres undefined) | inactive: 0.7% |
| CP(=O)(Nc1ccccn1)Oc1ccccc1 (centres undefined) | inactive: -0.7% |
| Cc1c2non([O-])c-2c(C)[n+](=O)[n+]1[O-] | inactive: 4.1% |
| O=C(NC(Sc1ccncn1)C(Cl)(Cl)Cl)c1ccccc1 (centres undefined) | inactive: 2.2% |
| Oc1ccccc1CNc1ccccn1 | inactive: 0.9% |
| CC(C)CC(=O)NC(Sc1ccc(Cl)cc1)C(Cl)(Cl)Cl (centres undefined) | inactive: -1% |
| O=[N+]([O-])c1cc([N+](=O)[O-])c(Nc2ccccn2)c([N+](=O)[O-])c1 | inactive: 0.5% |
| Cc1c(NP(C)(=O)Oc2ccc(C(C)C)cc2)c(=O)n(-c2ccccc2)n1C (centres undefined) | inactive: -1.1% |
| Nc1cc(N)c2nonc2c1[N+](=O)[O-] | inactive: -0.4% |
| CC(C)c1ccc(OP(C)(=O)Nc2ccc(SC(F)(F)F)cc2)cc1 (centres undefined) | inactive: 16.8% |
| CC(C)(C)C(=O)NC(Sc1ccccc1)C(Cl)(Cl)Cl (centres undefined) | inactive: 0.6% |
| CP(=O)(Nc1ccccc1F)Oc1ccccc1 (centres undefined) | inactive: 0% |
| CCOc1ccc(C2=NCC(CBr)S2)cc1 (centres undefined) | inactive: 6.5% |
| O=P1(Nc2nc3ccc(Cl)cc3s2)COc2ccccc2O1 (centres undefined) | inactive: -0.5% |
| CC(=O)Nc1ccc(Oc2c([N+](=O)[O-])cc([N+](=O)[O-])cc2[N+](=O)[O-])cc1 | inactive: 0.7% |
| COc1ccc2c(c1O)-c1c(O)c(OC)cc3c1[C@H](C2)[N+](C)(C)CC3.O=[N+]([O-])c1cc([N+](=O)[O-])c([O-])c([N+](=O)[O-])c1[O-] | inactive: 2.1% |
| CC(=O)Nc1ccc([As](=O)(O)O)c(O)c1 | inactive: -0.7% |
| C[C@@H]1C=CCP(=O)(Oc2ccccc2)O1 (some centres undefined) | inactive: -0.4% |
| C[C@H]1OP(=O)(Oc2ccccc2)C[C@@H]2O[C@@H]21 (some centres undefined) | inactive: 3.7% |
| Cc1ccccc1CN(C)C(=O)COC(=O)C(O)(c1ccccc1)c1ccccc1 | inactive: 1.4% |

| SMILES | activation |
| --- | --- |
| O=C(OCCN1CCN(CCOCc2ccccc2)CC1)C(O)(c1ccccc1)c1ccccc1 | inactive: -0.2% |
| O=C(OC1CN2CCC1CC2)c1ccc([N+](=O)[O-])cc1 (centres undefined) | inactive: 0.2% |
| COc1ccc(OP(C)(=O)Nc2ccc(SC(F)(F)F)cc2)cc1 (centres undefined) | inactive: 4.1% |
| CCOC(=O)c1ccc(NP(C)(=O)Oc2ccc(F)cc2)cc1 (centres undefined) | inactive: 2.5% |
| Cc1ccc(NP(=O)(Oc2cccc(C)c2)Oc2cccc(C)c2)nc1 | inactive: -1% |
| CCOC(=O)NC(Sc1ccccc1)C(Cl)(Cl)Cl (centres undefined) | inactive: 1.6% |
| c1ccc(-c2nn[nH]n2)c(-c2nn[nH]n2)c1 | inactive: 0.8% |
| CCNC(=S)/N=C(\N)N[N+](=O)[O-] | inactive: 0.8% |
| O=C(NC1CCS(=O)(=O)C1)NP(=S)(Oc1ccccc1)Oc1ccccc1 (centres undefined) | inactive: 0.5% |
| CN(C)C(=O)Oc1noc2ccccc12 | inactive: 0.3% |
| CCCCCOc1ccc(NP(C)(=O)Oc2ccc(Cl)cc2Cl)cc1 (centres undefined) | inactive: 13.4% |
| O=[N+]([O-])c1cc([N+](=O)[O-])c(OC2CCCCC2O)c([N+](=O)[O-])c1 (centres undefined) | inactive: -1.2% |
| Cc1ccccc1OP(=O)(Nc1ccccn1)Oc1ccccc1C | inactive: 1.7% |
| CC(NC(=O)COC(=O)C(O)(c1ccccc1)c1ccccc1)c1ccccc1 (centres undefined) | inactive: -0.8% |
| CP(=O)(Nc1ccccc1)Oc1ccc(F)cc1 (centres undefined) | inactive: -0.4% |
| CCN(CC)CCCOC(=O)C(O)(c1ccccc1)C1CCCCC1 (centres undefined) | inactive: -0.9% |
| CCC(=O)N1C2C3N(C(=O)CC)C1C1N(C(=O)CC)C(C(N1C(=O)CC)N3C(=O)CC)N2C(=O)CC | inactive: 3.3% |
| O=C(OC1CN2CCC1CC2)c1ccccc1 (centres undefined) | inactive: 0.3% |
| CC(=O)NC(SC(=S)N(CC(C)C)CC(C)C)C(Cl)(Cl)Cl (centres undefined) | inactive: 2.9% |
| Cc1ccc(OP(=O)(Nc2ccccn2)Oc2ccc(C)cc2)cc1 | inactive: 6% |
| COC(=O)c1cc2c(s1)N=C(c1ccccc1)N(C)P2(=O)N1CCOCC1 (centres undefined) | inactive: 0.3% |
| COc1ccc(NP(C)(=O)Oc2ccccc2OC)cc1 (centres undefined) | inactive: -0.5% |
| C[C@H]1OP(=O)(Oc2ccccc2)[C@H](O)[C@H](O)[C@H]1N=[N+]=[N-] (some centres undefined) | inactive: -1.5% |
| CN(C)CCOC(=O)C(O)(c1ccccc1)C1CCCCC1 (centres undefined) | inactive: 0.4% |
